Assay outcomes from PubChem BioAssay.
A selection: hits, their analogues and other compounds. The true share with any hit is near 16%.
DT40 TDP1 CPT: growth inhibition of DT40 Tdp1-/-;hTDP1 cells with camptothecin (screen for TDP1 inhibitors); chicken DT40 Tdp1-/-;hTDP1 cells + 20 nM CPT, ATP luminescence, 48 h; Potency, µM (series often up to 46.2 µM), usual class: inhibitors; 420,000 compounds, 12% hits; also: nearly all actives have a fitted effect of over 55% in size
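Chicken DT40 Tdp1-/- cells stably complemented with human TDP1 were seeded at 400 cells/well in medium containing 20 nM camptothecin, exposed to pin-transferred compounds, and grown at 37 °C for at least 48 hr. Viability was read as ATP luminescence.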
miR-21 reporter: miR-21 reporter, rising signal | HeLa miR-21 FLuc reporter, luciferase, 48 h | Potency, µM (doses to about 38.3 µM) | 340,000 tested, under 10 active | AID 2288; active = well fitted rising curve with a large enough effect; inconclusive = small, poorly fitted or top-dose-only effect; inactive = no such curve, though single readings can be large or run the other way;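 note: miR-21 action dims this reporter so a rising signal means less miR-21 action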
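Luminescence from a firefly luciferase reporter carrying a miR-21 binding site downstream, stably expressed under a CMV promoter in HeLa cells that make miR-21 endogenously, reports miRNA modulation after 48 h compound exposure up to approximately 40uM final.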
TDP1 inh: TDP1 (human) enzyme inhibition; Q9NUW8; recombinant TDP1, AlphaScreen DNA substrate cleavage; Potency, µM (highest dose often 130 µM), hits mostly inhibitors; 350,000 compounds, 0.28% hits; AID 485290; also: nearly all actives have a fitted effect of over 40% in size
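Tdp1 1 nM final; 15 min RT w/ cpd; substrate 15 nM, 5 min; beads 10 ug/ml, 10 min; AlphaScreen read. Neg ctrl: no enzyme.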
TDP1 cell noCPT: qHTS for Inhibitors of human tyrosyl-DNA phosphodiesterase 1 (TDP1): qHTS in cells in absence of CPT; DT40 Tdp1-/- hTDP1 cells, no CPT, ATP luminescence, 48 h; Potency, µM (top dose mostly 46.2 µM), actives largely listed as inhibitors; 420,000 compounds, 15% hits; also: nearly all actives have a fitted effect of over 55% in size
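Readout: luminescence from CellTiter-Glo after 30 min in the dark at RT. Cells: DT40 Tdp1-/- with stable hTDP1, 400/well. Exposure: compounds alone, ≥48 hr, 37 °C.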
uPA surface inh: cell surface uPA generation inhibition; Potency, µM (highest dose often 38.3 µM), usual class: inhibitors; AID 540303; cell surface uPA generation assay, qHTS; 330,000 compounds, 0.31% hits; active = well fitted inhibition curve with a large enough effect; inconclusive = small, poorly fitted or top-dose-only effect; inactive = no such curve, though single readings can be large or run the other way; tested in mouse RAW 264.7 cells; also: nearly all actives have a fitted effect of over 55% in size
A number is an active result; 0 = inactive; ? = inconclusive; - = not tested or not shown. Unless noted, calls follow the shape of the dose curve; as a rule, active = well fitted curve in the direction sought with a large enough effect; inconclusive = small, poorly fitted or top-dose-only effect, or another doubt; inactive = no such curve, though single readings can be large; an effect the other way counts as inactive or inconclusive.

SMILES | DT40 TDP1 CPT | miR-21 reporter | TDP1 inh | TDP1 cell noCPT | uPA surface inh
CCc1ccc(-n2c(SCc3nc(-c4cc(OC)ccc4OC)no3)nnc2-c2ccccc2)cc1 | 18µM | 0 | 0 | 21µM | -
COc1ccc(-n2c(C)nnc2SCc2nc(-c3ccc(OC)c(OC)c3)no2)cc1 | 0 | 0 | 0 | 0 | -
CCCCC#Cc1ccccc1CC(=O)Nc1ccccc1 | ? | 0 | 50µM | 0 | 0
CCOC(=O)C1(Cc2ccccc2)CCN(Cc2ccc(C)s2)CC1 | ? | 0 | 0 | 23µM | 0
CCOC(=O)C1(Cc2cccc(F)c2)CCN(Cc2ccc(COC)o2)CC1 | 23µM | 0 | 0 | 21µM | 0
CCOC(=O)C1(CCOc2ccccc2)CCN(Cc2ccc(COC)o2)CC1 | 7.3µM | 0 | - | ? | 0
CCOC(=O)C1(CCOc2ccccc2)CCN(Cc2ccc(C)o2)CC1 | ? | 0 | 0 | ? | 0
CCOC(=O)C1(Cc2ccccc2C(F)(F)F)CCN(Cc2ccon2)CC1 | ? | 0 | 0 | 15µM | 0
COc1ccccc1N1CCN(S(=O)(=O)c2ccc3c(c2)CCCN3C(C)=O)CC1 | ? | 0 | 0 | ? | -
O=C(CCCn1c(=O)c2ccccc2n(Cc2cccc(F)c2)c1=O)NCc1ccccc1Cl | ? | 0 | 0 | ? | -
CCOc1ccccc1C(=O)NCC(=O)NCC(c1ccc(OC)cc1)N1CCOCC1 (stereo not drawn) | 0 | - | 0 | 0 | 0
CCOC(=O)C1(Cc2ccccc2)CCN(Cc2ccc(COC)o2)CC1 | 12µM | 0 | 0 | ? | 0
CCOC(=O)C1(Cc2ccccc2)CCN(Cc2ccon2)CC1 | 0 | 0 | 0 | 0 | 0
CNC(=O)c1c(NC(=O)CS(=O)(=O)c2ccc(Cl)cc2)sc(C)c1C | 9.2µM | - | 0 | ? | 0
CNC(=O)c1c(NC(=O)CS(=O)(=O)c2ccccc2)sc(C)c1C | 0 | - | - | 0 | 0
CN(CC(=O)Nc1ccc(Cl)cc1)CC(=O)Nc1sc2c(c1C(N)=O)CCC2 | 21µM | - | - | 15µM | -
CN(CC(=O)Nc1ccccc1Cl)CC(=O)Nc1sc2c(c1C(N)=O)CCC2 | 26µM | - | - | 18µM | 0
Cc1cccc(C)c1NC(=O)CN(C)CC(=O)Nc1sc2c(c1C(N)=O)CCC2 | ? | - | 0 | ? | 0
N#Cc1c(NC(=O)CS(=O)(=O)c2ccc(Cl)cc2)sc2c1CCCCC2 | ? | 0 | 0 | ? | -
NC(=O)c1c(NC(=O)CS(=O)(=O)c2ccc(Cl)cc2)sc2c1CCCCC2 | 23µM | 0 | 0 | 16µM | -
O=C(O)c1ccc(Nc2nc(-c3cccnc3)cs2)cc1O | 0 | 0 | 0 | 0 | 0
COc1ccc2[nH]cc(CCn3ccc(O)c(C/C=C/c4ccccc4)c3=O)c2c1 | 0 | 0 | 0 | 0 | 0
NC(=O)c1ccc(NC(=O)COC(=O)CC2Sc3ccccc3NC2=O)cc1 (stereo not drawn) | 0 | - | 0 | 0 | 0
CCc1nc2ccccc2n1CCc1ccccc1 | 0 | 0 | 0 | ? | 0
CCc1nc2ccccc2n1CCC(C)C | 26µM | 0 | 0 | 16µM | 0
SMILES | DT40 TDP1 CPT | miR-21 reporter | TDP1 inh | TDP1 cell noCPT | uPA surface inh
C=C(Br)Cn1c(CC)nc2ccccc21 | 0 | 0 | 0 | ? | 0
CC(C)Cc1nc2ccccc2n1CCc1ccccc1 | 23µM | 0 | 0 | ? | 0
C=C(Br)Cn1c(CC(C)C)nc2ccccc21 | 12µM | 0 | 0 | 9.2µM | 0
CC(C)C(=O)NCCc1nc2ccccc2n1CCc1ccccc1 | ? | 0 | 0 | 21µM | 0
CC(C)c1nc2ccccn2c1NC1CCCCC1 | 0 | 0 | 0 | ? | 0
N#CCCn1c(=O)c(CCc2ccccc2)nc2cnc(N3CCOCC3)nc21 | 0 | - | - | 0 | -
NCC(O)CC(=O)O (stereo not drawn) | 0 | - | 0 | 0 | -
CC(C)c1ccc(NC(=O)CN2C(=O)NC(Cc3c[nH]c4ccccc34)C2=O)cc1 (stereo not drawn) | ? | - | 0 | 16µM | ?
CCOC(=O)c1c(NC(=O)COC(=O)CNC(=O)c2ccco2)sc(C(C)=O)c1C | 0 | 0 | 0 | 0 | 0
Cc1cnc(CNC(=O)CC2C(=O)NCCN2Cc2ccccc2C(F)(F)F)cn1 (stereo not drawn) | 0 | 0 | 0 | 0 | 0
CCc1ccc(CNC(=O)CC2C(=O)NCCN2Cc2ccccc2F)nc1 (stereo not drawn) | 0 | 0 | 0 | 5.2µM | 0
O=C(CC1C(=O)NCCN1CC1CCCCC1)NCc1cc(F)ccc1F (stereo not drawn) | 23µM | 0 | 0 | ? | 0
